{"source": "patent US20070213370A1", "about": "“5-HTP Combination Therapy” (H. Lundbeck A/S, priority 2005, published 2007)", "tested_on": "NMRI/BOM mice", "assay": "Mouse forced swim test", "assay_type": "in vivo", "conditions": "5-HTP 25 mg/kg SC", "data": [{"compound": "CNCCC(Oc1ccc(C(F)(F)F)cc1)c1ccccc1", "note": "(stereo not shown)", "values": [{"measurement": "Potentiation (ratio between ED50 for SRI alone and SRI in combination with 5-HTP)", "value": ">1.6"}]}]}
